From article PMC6195595 (2018) come the findings set out here.

Assay [1] has as its target Kj12B-CDDshort E1567R peptide (Xenorhabdus stockiae KJ12.1, E1567R (stands in the printed letters)). The assay is described as follows: ITC. In general terms: Isothermal titration calorimetry measures the heat released or taken up as one component is titrated into another.
Assay [2] has as its target Kj12B-CDDshort E1567A peptide (Xenorhabdus stockiae KJ12.1, E1567A (stands in the printed letters)). The assay is described as follows: ITC.

B1: Kj12C-^NDD (N-terminal docking domain of Kj12C) (domain or fragment)
chain: GIDAAQIVDEALEQGITLFVVNNRLQYETSRDSIPTELLNKWKQHKQELIDFLNQLDSEEQTK
Turning to B1, the dissociation constant Kd (as a rule, the free concentration of one partner at which half of the binding sites on the other are occupied at equilibrium, for simple one-to-one binding) in assay [1] is 64 µM; in assay [2] it was 24 µM.
